Assay results reported in patent US20150004134A1, “TREATMENT OF CANCER WITH HETEROCYCLIC INHIBITORS OF GLUTAMINASE” (Calithera Biosciences, Inc., priority 2012, published 2015).

Assays:
P493-6 (myc "on") cells = assay: Cell Proliferation Assay; assay type: cell-based; conditions: P493-6, 72 h, read-out: Cell prolif P493 72 h IC50
Experimental: P493-6 (myc “on”) cells were maintained in growth media (RPMI-1640, 10% FBS, 2 mM glutamine, 100 units/ml Penicillin and 100 μg/ml streptomycin) at 37° C. with 5% CO2. For compound assay, P493-6 cells were plated in 96-well V-bottom plates on the day of compound addition in 50 μl of growth media at a cell density of 200,000 cells/ml (10,000 cells/well). Compounds were serially diluted in 100% DMSO at 200-times the final concentration. Compounds were diluted 100-fold into growth media and then 50 μl of this mixture was added to cell plates making the final concentration of DMSO 0.5%. Cells were incubated with compound for 72 hrs at 37° C. with 5% CO2 and analyzed for antiproliferative effects either by Cell Titer Glo (Promega) or FACS analysis using the Viacount (Millipore) kit on the Guava instrument.

[1] = biological target: T1, recombinant form of Glutaminase 1 (GAC) (Homo sapiens, UniProt O94925); assay: Recombinant Enzyme Assay (no preincubation); assay type: biochemical; conditions: read-out: GAC Delta N2 IC50 no preinc;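 also: GDH-coupled GAC activity read as absorbance at 340 nm in kinetic mode over 15 min at 20 °C, slopes compared with a DMSO-only control, lower slope means inhibition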
T1 sequence (O94925 137-598 isoform O94925-3 limits assumed): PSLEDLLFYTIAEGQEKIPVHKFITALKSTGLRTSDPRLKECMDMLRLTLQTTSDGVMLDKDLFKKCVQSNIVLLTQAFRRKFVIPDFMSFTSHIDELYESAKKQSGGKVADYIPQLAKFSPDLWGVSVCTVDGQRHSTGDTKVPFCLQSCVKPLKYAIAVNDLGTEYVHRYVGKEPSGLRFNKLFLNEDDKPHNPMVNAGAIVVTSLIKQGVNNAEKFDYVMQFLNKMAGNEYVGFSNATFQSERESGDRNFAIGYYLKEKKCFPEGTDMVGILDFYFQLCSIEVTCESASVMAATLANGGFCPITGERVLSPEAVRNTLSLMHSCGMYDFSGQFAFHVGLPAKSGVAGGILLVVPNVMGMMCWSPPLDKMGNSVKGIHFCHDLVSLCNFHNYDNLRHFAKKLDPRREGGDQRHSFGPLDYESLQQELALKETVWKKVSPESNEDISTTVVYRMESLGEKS

[2] = biological target: T1, recombinant form of Glutaminase 1 (GAC); assay: Recombinant Enzyme Assay - Time Dependence (60 min preincubation); assay type: biochemical; conditions: read-out: GAC Delta N2 IC50 60 min preinc
Experimental: The enzyme/compound mix was sealed with sealing foil (USA Scientific) and allowed to incubate, with mild agitation, for 60 minutes at 20° C. Enzymatic reaction was started with the addition of 50 μL of substrate solution (50 mM Tris-HCl pH 8.0, 0.2 mM EDTA, 150 mM K2HPO4, 0.1 mg/ml BSA, 1 mM DTT, 20 mM L-glutamine, 2 mM NAD^+, and 10 ppm antifoam) and read in a Molecular Devices M5 plate reader at 20° C. The plate reader was configured to read absorbance (=340 nm) in kinetic mode for 15 minutes. Data was recorded as milli-absorbance units per minute and slopes were compared to a control compound and a DMSO-only control on the same plate. Compounds with slopes less than the DMSO control were considered inhibitors and plate variability was assessed using the control compound.

Structure (SMILES)	IC50 (P493-6 (myc "on") cells) [nM]	IC50 [1] [nM]	IC50 [2] [nM]
Nc1nnc(CCSCCc2nnc(NC(=O)Cc3ccccc3)s2)s1 [Compound 17, N-(5-(2-((2-(5-amino-1,3,4-thiadiazol-2-yl)ethyl)thio)ethyl)-1,3,4-thiadiazol-2-yl)-2-phenylacetamide]	4200	–	–
O=C(Cc1ccccc1)Nc1ccc(CCCCc2nnc(NC(=O)C(O)c3ccccc3)s2)nn1 (centres unmarked) [Compound 315]	–	120	17
COc1cccc(C(O)C(=O)Nc2nnc(CCCCc3ccc(NC(=O)Cc4ccccc4)nn3)s2)c1 (centres unmarked) [Compound 317]	–	180	7
NCc1cccc(CC(=O)Nc2nnc(CCCCc3ccc(NC(=O)Cc4ccccc4)nn3)s2)c1 [Compound 341]	–	130	13
O=C(Cc1ccccc1)Nc1ccc(CCCCc2nnc(NC(=O)[C@@H](O)c3ccccc3)s2)nn1 [Compound 350]	–	79	–
O=C(Cc1ccccc1)Nc1ccc(CCCCc2nnc(NC(=O)NCc3ccccc3)s2)nn1 [Compound 352]	–	69	–
CC(C)(C)OC(=O)NCc1cccc(CC(=O)Nc2ccc(CCCCc3nnc(NC(=O)Cc4ccccc4)s3)nn2)c1 [Compound 367]	–	120	2
